Measured values from patent US20100035871A1, “BENZOXAZINE DERIVATIVES AND USES THEREOF” (priority 2006, published 2010).

The chains behind the UniProt entries cited, without tags or fusion partners. Residues count along the entry.
UniProt P28335, 33-458: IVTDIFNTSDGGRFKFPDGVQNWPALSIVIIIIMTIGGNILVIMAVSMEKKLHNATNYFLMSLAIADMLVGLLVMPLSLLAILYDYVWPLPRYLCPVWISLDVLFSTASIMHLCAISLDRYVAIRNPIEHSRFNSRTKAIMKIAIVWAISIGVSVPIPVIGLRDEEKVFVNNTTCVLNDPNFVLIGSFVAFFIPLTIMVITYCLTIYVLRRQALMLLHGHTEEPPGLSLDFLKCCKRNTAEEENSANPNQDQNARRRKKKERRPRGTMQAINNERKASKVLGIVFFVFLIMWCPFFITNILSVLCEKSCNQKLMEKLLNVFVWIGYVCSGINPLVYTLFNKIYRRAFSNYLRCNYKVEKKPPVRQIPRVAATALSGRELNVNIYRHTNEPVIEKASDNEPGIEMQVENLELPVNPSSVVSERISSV

Tests used:
human 5-HT2C receptor [1] = molecular target: T1, human 5-HT2C receptor (Homo sapiens, UniProt P28335); assay: 5-HT2C receptor binding, [125I]DOI displacement, membranes of transfected CHO cells; conditions: reference compounds; value (95% confidence interval); [125I]DOI binding
T1 construct: expressed in transfected cells; host or cells: CHO (Chinese Hamster Ovary) cells; membrane preparation

human 5-HT2C receptor [2] = molecular target: T1, human 5-HT2C receptor; assay: 5-HT2C receptor-stimulated calcium mobilization (FLIPR) in CHO cells; type: cell-based; conditions: reference compounds

## Clc1cccc(N2CCNCC2)c1 [mCPP, meta-chlorophenylpiperazine, reference compound]
Human 5-HT2C receptor [1]
  Ki: 6.5 nM
Human 5-HT2C receptor [2]
  EC50: 5.4 nM
